{"source": "patent US6984513B2", "about": "“Anaerobe targeted enzyme-mediated prodrug therapy” (priority 1994, dated 2006)", "system": "SCCVII cells", "assay": "Cytotoxicity of 5-FC to SCCVII cells with extract of tumors from mice injected with recombinant C. sporogenes spores", "settings": "SCCVII cells incubated with 5-FC plus tumor extract for two days"}
{"smiles": "Nc1nc(=O)[nH]cc1F", "note": "[5-FC, 5-fluorocytosine]", "values": [{"measurement": "increase in cytotoxicity of 5-FC by tumor extract (factor)", "value": "approximately 10^3"}]}
